These results are taken from US20030186334A1, “KTS-disintegrins” (Temple University - Of the Commonwealth System of Higher …, priority 2001, published 2003).

By UniProt entry, the sequences of proteins in these tests, tags left out. Residues count along the entry.
UniProt P56199, 29-1179: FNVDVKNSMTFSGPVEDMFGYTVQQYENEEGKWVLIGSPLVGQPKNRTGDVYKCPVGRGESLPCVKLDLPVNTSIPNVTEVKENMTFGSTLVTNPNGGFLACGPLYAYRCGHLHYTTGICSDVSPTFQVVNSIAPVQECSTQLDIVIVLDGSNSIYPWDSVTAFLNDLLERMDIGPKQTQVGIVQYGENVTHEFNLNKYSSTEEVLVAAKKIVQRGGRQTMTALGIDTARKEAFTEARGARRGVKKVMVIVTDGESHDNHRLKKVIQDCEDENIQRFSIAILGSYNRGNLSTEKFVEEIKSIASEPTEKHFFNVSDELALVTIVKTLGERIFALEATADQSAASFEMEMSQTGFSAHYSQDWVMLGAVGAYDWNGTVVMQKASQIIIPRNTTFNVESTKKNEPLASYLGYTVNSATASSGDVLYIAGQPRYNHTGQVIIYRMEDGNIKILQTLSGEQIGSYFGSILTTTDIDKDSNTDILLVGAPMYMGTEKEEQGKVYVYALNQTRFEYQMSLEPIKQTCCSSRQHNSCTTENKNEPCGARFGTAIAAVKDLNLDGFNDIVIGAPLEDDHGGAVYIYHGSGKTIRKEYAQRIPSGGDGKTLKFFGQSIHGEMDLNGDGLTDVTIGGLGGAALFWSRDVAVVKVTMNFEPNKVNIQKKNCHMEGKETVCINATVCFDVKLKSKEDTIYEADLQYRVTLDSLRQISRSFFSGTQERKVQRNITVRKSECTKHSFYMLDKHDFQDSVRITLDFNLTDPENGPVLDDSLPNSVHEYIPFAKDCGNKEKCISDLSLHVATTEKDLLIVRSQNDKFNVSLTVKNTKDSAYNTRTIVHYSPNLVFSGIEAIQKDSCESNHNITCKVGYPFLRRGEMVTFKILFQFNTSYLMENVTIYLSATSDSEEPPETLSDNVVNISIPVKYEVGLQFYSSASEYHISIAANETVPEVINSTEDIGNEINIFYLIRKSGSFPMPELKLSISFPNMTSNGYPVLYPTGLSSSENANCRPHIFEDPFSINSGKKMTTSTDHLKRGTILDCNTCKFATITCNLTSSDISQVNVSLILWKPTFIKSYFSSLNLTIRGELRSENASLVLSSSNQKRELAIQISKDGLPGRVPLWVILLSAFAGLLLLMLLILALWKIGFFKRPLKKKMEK

The target in this test is T1, α1β1 integrin (Homo sapiens, UniProt P05556+P56199).
T1 construct: expressed in transfected cells; host or cells: α1K562 cells
Nature of the test: adhesion of α1K562 cells to immobilized collagen IV. The test is classed as cell-based. As for the experimental part: The ability of EP-obtustatin and the synthetic peptides described above to inhibit activity of the α1β1 integrin was then assayed. Collagen IV (0.2 μg/well) in 0.02 M acetic acid was immobilized by incubation overnight at 4° C. on a 96-well plate. Plates were then blocked with 1% (w/v) BSA (bovine serum albumin) in Hank's Balanced Salt Solution (HBSS) containing 3 mM Mg^2+ at room temperature for 1-2 hours to prevent cells from non-specifically binding to the plates. α1K562 cells were labeled by incubation with 12.5 μM 5-chloromethylfluorescein diacetete (CMFDA) in HBSS for 15 minutes at 37° C. CMFDA labeled α1K562 cells were then pelleted, washed and resuspended in HBSS buffer containing 3 mM Mg^2+ and 1% BSA. […] Fluorescent CMFDA released by lysis of adherent cells in a given well was read using a Cytofluor 2350 fluorescence plate reader.
Adhesive ligands for the selected integrins consisted of collagen IV (0.2 μg/well), collagen I, fibronectin, or vascular cell adhesion molecule-1 (VCAM-1). […] Fluorescent CMFDA released by lysis of adherent cells in a given well was read using a Cytofluor 2350 fluorescence plate reader.
The effect of obtustatin, viperisrastatin, echistatin, and eristostatin on the binding of selected integrins to their adhesive ligands was evaluated using the cell adhesion assay described in Example 6. […]

The term IC50 denotes the concentration needed to halve the response being measured. High values mean weaker potency in that assay, low ones greater potency in that assay. `CC(C)C[C@H](NC(=O)[C@H](CO)NC(=O)[C@@H](N)[C@@H](C)O)C(=O)N[C@H](C(=O)N[C@@H](CO)C(=O)O)[C@@H](C)O` [TSLTS] displayed an IC50 of 3.5 mM.
